Data on 4 compounds can be found in patent publication US20260055097A9, “NRF2 PROTEIN DEGRADERS” (Ganymede Oncology, Inc., priority 2022, published 2026).

Protein sequences, listed by entry. Tags and fused reporters are not part of them.
UniProt Q16236, whole entry: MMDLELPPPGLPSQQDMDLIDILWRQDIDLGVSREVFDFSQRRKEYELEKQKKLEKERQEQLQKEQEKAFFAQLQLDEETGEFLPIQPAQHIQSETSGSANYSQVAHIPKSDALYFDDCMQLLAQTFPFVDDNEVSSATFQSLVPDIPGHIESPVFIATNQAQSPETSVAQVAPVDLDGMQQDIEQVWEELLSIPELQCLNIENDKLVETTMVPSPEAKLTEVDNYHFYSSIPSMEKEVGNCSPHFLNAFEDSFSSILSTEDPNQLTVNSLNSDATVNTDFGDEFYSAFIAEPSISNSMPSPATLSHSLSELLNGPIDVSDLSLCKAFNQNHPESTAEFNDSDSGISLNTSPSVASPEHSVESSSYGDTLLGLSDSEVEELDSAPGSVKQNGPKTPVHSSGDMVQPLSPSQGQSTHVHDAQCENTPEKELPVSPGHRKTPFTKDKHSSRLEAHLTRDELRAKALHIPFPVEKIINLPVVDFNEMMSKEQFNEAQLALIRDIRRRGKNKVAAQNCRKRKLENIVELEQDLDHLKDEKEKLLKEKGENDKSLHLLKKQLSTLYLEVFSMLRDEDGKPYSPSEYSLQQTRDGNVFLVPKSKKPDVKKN

Read-outs that look alike come from different tables or passages of the source. Where only a bound is given, the exact number is not on record here.

For one assay, the target named is Nrf2 (Homo sapiens, UniProt Q16236). The experiment in a line: Nrf2 degradation in A549 HiBiT-Nrf2 cells, Nano-Glo HiBiT lytic detection (HiBiT readout). (In general: The HiBiT peptide binds its large partner to form an active luciferase.)
The next assay concerns A549. As to the kind of experiment: Cancer cell viability, A549 (CellTiter-Glo). The note with it: read-out: Cellular IC50 (μM) A549, A549 cells, 3 days. For orientation: ATP-based viability assays read luminescence as a measure of living cells.
A further assay has as its system LK-2. The experiment in a line: Cancer cell viability, LK-2 (CellTiter-Glo). The following applies: read-out: Cellular IC50 (μM) LK-2, LK-2 cells, 3 days.
Where [1] appears, read: read-out: DC50 (nM) at 6 h, 6 h.
Where [2] appears, read: read-out: DC50 (nM) at 20 h, 20 h.

With `Cc1sc(NC(=O)Cc2cccc(OCCCCCOc3cccc4c3C(=O)N(C3CCC(=O)NC3=O)C4=O)c2)nc1-c1ccc2c(c1)CCN2C(=O)C1CC1` (stereo not drawn), the half-maximal degradation concentration (DC50) on Nrf2 (setting [1]) and at Nrf2 (setting [2]) was 300 to 3000 nM throughout.

Turning to `Cc1sc(C(=O)NCc2cccc(OCCCCCNc3cccc4c3C(=O)N(C3CCC(=O)NC3=O)C4=O)c2)nc1-c1ccc2c(c1)CCN2C(=O)C1CC1` (stereo not drawn), the 50% degradation concentration (DC50) on Nrf2 (setting [1]) and on Nrf2 (setting [2]) was < 300 nM each time. For the same compound, the IC50 with A549 came out at 0.15 µM.

For the compound `Cc1sc(NC(=O)Cc2cccc(OCCCCCCCNc3cccc4c3C(=O)N(C3CCC(=O)NC3=O)C4=O)c2)nc1-c1ccc2c(c1)CCN2C(=O)C1CC1` (stereo not drawn), the DC50 on Nrf2 (setting [1]) is > 3000 nM; at Nrf2 (setting [2]), 300 to 3000 nM. Further, in the assay with A549, the IC50 is > 30 µM.

Regarding `Cc1sc(NC(=O)Cc2cccc(OCCCCCNc3ccc4c(c3)C(=O)N(C3CCC(=O)NC3=O)C4=O)c2)nc1-c1ccc2c(c1)CCN2C(=O)C1CC1` (stereo not drawn), the concentration for half-maximal inhibition (IC50) in the assay with LK-2 is 0.3 µM; with A549, 0.7 µM. The DC50 at Nrf2 (setting [1]) and on Nrf2 (setting [2]) was < 300 nM throughout.

One may read the DC50 as the concentration at which degradation of the target reaches its halfway point. The IC50 is the point on the concentration scale where inhibition reaches its midpoint.
